The values below come from ChEMBL document CHEMBL4825756, “New Design Rules for Developing Potent Cell-Active Inhibitors of the Nucleosome Remodeling Factor (NURF) via BPTF Bromodomain Inhibition” (J Med Chem, 2021).

This test concerns the target Nucleosome-remodeling factor subunit BPTF (Homo sapiens, UniProt Q12830). Nature of the test: Inhibition of HIS9-tagged BPTF (unknown origin) expressed in Escherichia coli BL21 (DE3) cells incubated for 30 mins by AlphaScreen assay. On the technique in general: Bead proximity is the source of the signal in Alpha formats.

Take `Cn1ncc(N[C@@H]2CCNC2)c(Cl)c1=O`: the IC50 (usually the midpoint of a concentration-inhibition curve) is 10 µM.
Take `Cn1ncc(N[C@H]2CCNC2)c(Cl)c1=O`: inhibition was half-maximal at 31 µM (IC50).
